In patent US20260382628A1, “TEAD- AND KRAS G12D-INHIBITOR COMBINATIONS FOR TREATING CANCER” (published 2026):

Key:
Details in all cases: single agent, 6-day treatment
[1] = system: HPAF-II cells; assay: CellTiterGlo in vitro viability (proliferation), HPAF-II
Experimental: (§1) FIG. 1: In vitro viability of the KRAS G12D mutant pancreatic ductal adenocarcinoma cancer cell line HPAF-II was assessed using CellTiterGlo following 6-day treatment with (top) IAG933 combined with MRTX1133, (middle) TNO155 combined with MRTX1133 and (bottom) IAG933 combined with MRTX1133 and 500 nM TNO155. […] .
In vitro viability of the KRAS G12D mutant pancreatic ductal adenocarcinoma cancer cell line HPAF-II was assessed using CellTiterGlo following 6-day treatment with IAG933 combined with MRTX1133 (±TNO155). […] . Further combination with TNO155 provided a further combination benefit (FIG. 1).

[2] = system: ASPC-1 cells; assay: CellTiterGlo in vitro viability (proliferation), ASPC-1
Experimental: as §1, with “2:” for “1:”, “ASPC-I” for “HPAF-II”
In vitro viability of the KRAS G12D mutant pancreatic ductal adenocarcinoma cancer cell line ASPC-1 was assessed using CellTiterGlo following 6-day treatment with IAG933 combined with MRTX1133 (±TNO155). […] . Further combination with TNO155 provided a further combination benefit (FIG. 2).

[3] = system: SW1990 cells; assay: CellTiterGlo in vitro viability (proliferation), SW1990
Experimental: as §1, with “3:” for “1:”, “SW1990” for “HPAF-II”
In vitro viability of the KRAS G12D mutant pancreatic ductal adenocarcinoma cancer cell line SW1990 was assessed using CellTiterGlo following 6-day treatment with IAG933 combined with MRTX1133 (±TNO155). […] . Further combination with TNO155 provided a further combination benefit (FIG. 3).

C#Cc1c(F)ccc2cc(O)cc(-c3ncc4c(N5C[C@H]6CC[C@@H](C5)N6)nc(OC[C@@]56CCCN5C[C@H](F)C6)nc4c3F)c12
inhibited: Proliferation of HPAF-II cells [1] | Proliferation of ASPC-1 cells [2] | Proliferation of SW1990 cells [3]
